Source: US20220193076A1, “METHODS OF TREATING BREAST CANCER WITH TUCATINIB” (Seagen Inc., priority 2019, published 2022)

Test system: MATE1/2K
Experiment: Phase 1 drug-drug interaction study: effect of tucatinib on metformin pharmacokinetics (Example 1)
Details: metformin co-administered with tucatinib

## CN(C)C(=N)N=C(N)N [metformin]
  Change in metformin CLrenal: reductions
